Test results: PubChem BioAssay (NCATS)
The entries are a selection whose mix differs from that of the whole data set. Inconclusive results are not listed. Calls of active or inactive are those of the source. Unless noted, calls follow the shape of the dose curve; as a rule, active = well fitted curve in the direction sought with a large enough effect; inconclusive = small, poorly fitted or top-dose-only effect, or another doubt; inactive = no such curve, though single readings can be large; an effect the other way counts as inactive or inconclusive.

Sequences of proteins named here, by UniProt entry; tags and fusion partners are left off. A change or cut given only in a name is not applied to a line headed by its entry.
UniProt O94782: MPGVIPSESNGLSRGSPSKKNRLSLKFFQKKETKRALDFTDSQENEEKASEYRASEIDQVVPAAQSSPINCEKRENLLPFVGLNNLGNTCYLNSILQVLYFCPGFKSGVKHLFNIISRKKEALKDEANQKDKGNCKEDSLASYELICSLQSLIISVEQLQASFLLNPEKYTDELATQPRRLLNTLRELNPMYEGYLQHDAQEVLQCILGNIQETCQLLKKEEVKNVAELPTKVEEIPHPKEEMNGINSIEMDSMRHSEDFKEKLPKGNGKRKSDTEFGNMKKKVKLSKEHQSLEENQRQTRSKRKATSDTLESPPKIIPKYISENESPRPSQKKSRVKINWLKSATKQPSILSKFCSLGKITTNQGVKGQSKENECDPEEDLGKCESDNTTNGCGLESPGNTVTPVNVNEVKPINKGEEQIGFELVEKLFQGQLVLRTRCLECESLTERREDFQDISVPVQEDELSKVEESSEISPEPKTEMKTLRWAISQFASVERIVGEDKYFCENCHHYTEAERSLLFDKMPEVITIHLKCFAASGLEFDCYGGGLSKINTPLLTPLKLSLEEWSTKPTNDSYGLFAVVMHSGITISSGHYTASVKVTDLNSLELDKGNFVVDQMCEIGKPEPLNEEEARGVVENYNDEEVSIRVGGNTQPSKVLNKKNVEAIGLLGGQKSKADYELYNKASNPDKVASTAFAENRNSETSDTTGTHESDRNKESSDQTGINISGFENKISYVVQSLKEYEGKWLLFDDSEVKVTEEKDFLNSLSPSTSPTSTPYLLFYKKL
UniProt P10275: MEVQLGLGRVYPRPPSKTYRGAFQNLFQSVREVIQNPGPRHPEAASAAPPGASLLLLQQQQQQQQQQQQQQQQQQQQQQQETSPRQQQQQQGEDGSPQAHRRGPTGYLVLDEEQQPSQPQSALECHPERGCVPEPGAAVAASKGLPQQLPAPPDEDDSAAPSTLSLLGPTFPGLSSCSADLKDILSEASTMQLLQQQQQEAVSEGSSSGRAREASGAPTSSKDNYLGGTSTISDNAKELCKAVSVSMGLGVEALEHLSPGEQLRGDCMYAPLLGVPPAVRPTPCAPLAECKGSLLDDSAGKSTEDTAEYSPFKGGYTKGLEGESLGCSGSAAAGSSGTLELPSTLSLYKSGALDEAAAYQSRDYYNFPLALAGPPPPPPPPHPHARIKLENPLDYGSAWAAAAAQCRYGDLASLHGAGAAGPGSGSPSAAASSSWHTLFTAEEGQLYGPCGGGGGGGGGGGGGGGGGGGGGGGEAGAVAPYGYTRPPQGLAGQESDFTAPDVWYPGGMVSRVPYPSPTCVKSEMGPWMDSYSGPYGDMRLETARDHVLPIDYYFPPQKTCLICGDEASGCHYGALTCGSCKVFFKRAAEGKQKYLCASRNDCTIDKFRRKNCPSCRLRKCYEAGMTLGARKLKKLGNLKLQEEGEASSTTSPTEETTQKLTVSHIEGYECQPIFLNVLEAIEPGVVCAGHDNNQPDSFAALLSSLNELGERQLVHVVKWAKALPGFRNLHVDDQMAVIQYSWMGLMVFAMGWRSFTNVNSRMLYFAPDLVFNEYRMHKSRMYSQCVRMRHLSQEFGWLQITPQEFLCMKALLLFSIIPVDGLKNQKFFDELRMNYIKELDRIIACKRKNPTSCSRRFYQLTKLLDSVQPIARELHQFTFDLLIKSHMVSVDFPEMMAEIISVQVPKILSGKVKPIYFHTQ

Assays:
[1] = Cell Viability - LYMP2-004 (AID 966); conditions: LYMP2-004 lymphoblastoid cell viability, qHTS; at 92.2 µM (top of the series);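 also: plate controls were DMSO only for no effect and tetraoctylammonium bromide control for full effect; nearly all actives have a fitted effect of over 65% in size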
Method in brief: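 qHTS cytotoxicity: human lymphoblastoid line, 24 hr compound treatment, 37 C, complete medium. Viability read as cellular ATP via luciferase luminescence; tetraoctylammonium bromide served as positive control.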

[2] = Cell Viability - LYMP2-009 (AID 968); conditions: LYMP2-009 lymphoblastoid cell viability; at 92.2 µM (top of the series);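 also: 0% = DMSO alone and the full-kill end = tetraoctylammonium bromide at 92 µM; nearly all actives have a fitted effect of over 55% in size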
[3] = Cell Viability - LYMP2-011 (AID 969); conditions: LYMP2-011 lymphoblastoid cells viability; at 92.2 µM (top of the series);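 also: 0% = DMSO only and full inhibition = 92 µM tetraoctylammonium bromide; nearly all actives have a fitted effect of over 60% in size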
Method in brief: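 In this qHTS cytotoxicity format, compounds are tested across concentrations on human lymphoblastoid cells in complete medium for 24 hours at 37 C. Viability is taken as cellular ATP measured by luciferase luminescence.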

[4] = Cell Viability - LYMP2-013 (AID 970); conditions: LYMP2-013 lymphoblastoid cells viability; at 92.2 µM (top of the series);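 also: 0% = DMSO only and full inhibition = tetraoctylammonium bromide control; nearly all actives have a fitted effect of over 55% in size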
[5] = Cell Viability - LYMP2-015 (AID 971); conditions: LYMP2-015 lymphoblastoid cell viability; at 92.2 µM (top of the series);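 also: 0% = DMSO only and full effect = 92 µM tetraoctylammonium bromide; nearly all actives have a fitted effect of over 55% in size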
[6] = Cell Viability - LYMP2-017 (AID 972); conditions: LYMP2-017 lymphoblastoid cell viability; at 92.2 µM (top of the series); also: % is scaled to controls: 0 for no effect and ±100 for the full control effect; nearly all actives have a fitted effect of over 55% in size
[7] = Cell Viability - LYMP2-019 (AID 973); conditions: LYMP2-019 lymphoblastoid cell line viability; at 92.2 µM (top of the series)
[8] = Cell Viability - LYMP2-021 (AID 974); conditions: LYMP2-021 lymphoblastoid cells viability; at 92.2 µM (top of the series)
[9] = Cell Viability - LYMP2-023 (AID 975); conditions: LYMP2-023 lymphoblastoid cell viability; at 92.2 µM (top of the series)
Method in brief: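 Steps: seed 2500 human lymphoblastoid cells per well, incubate 5 hr at 37 C, add compound for 24 hr at 37 C, add CellTiter-Glo, hold 30 min at room temperature, read luminescence. AC50 derived by Hill modelling.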

[10] = Cell Viability - LYMP2-025 (AID 976); conditions: LYMP2-025 lymphoblastoid cell viability; at 92.2 µM (top of the series);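 also: plate controls were DMSO only for no effect and tetraoctylammonium bromide control for full effect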
Method in brief: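 Acute cytotoxicity is scored as a concentration-dependent fall in intracellular ATP, measured by luciferase luminescence, in human lymphoblastoid LYMP2-025 cells exposed to compound for 24 hours at 37 C. AC50 values come from standard Hill fits.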

[11] = Cell Viability - LYMP2-002 (AID 977); conditions: LYMP2-002 lymphoblastoid cell viability, qHTS; at 92.2 µM (top of the series);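 also: compound exposure lasted 24 h at 37 °C; plate controls were DMSO only for no effect and 92 µM tetraoctylammonium bromide for full effect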
Method in brief: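 Human lymphoblastoid cells (2500/well) in complete medium were preincubated 5 hr at 37 C, then exposed to compounds for 24 hr at 37 C. Intracellular ATP was read by CellTiter-Glo luminescence; AC50 came from Hill-equation concentration-response fits.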

[12] = Cell Viability - LYMP2-006 (AID 978); conditions: LYMP2-006 lymphoblastoid cell viability, qHTS; at 92.2 µM (top of the series); also: % is scaled to controls: 0 for no effect and ±100 for the full control effect; nearly all actives have a fitted effect of over 60% in size
Method in brief: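 Concentration-dependent loss of intracellular ATP in a human lymphoblastoid line after 24 hr treatment at 37 C was measured by CellTiter-Glo luminescence, with AC50 values obtained from standard Hill-equation modelling.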

[13] = Cell Viability - LYMP2-007 (AID 979); conditions: LYMP2-007 lymphoblastoid cell viability; at 92.2 µM (top of the series);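 also: cells exposed to compound for 24 h before reading; 0% = DMSO only and the negative end = 92 µM tetraoctylammonium bromide; nearly all actives have a fitted effect of over 60% in size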
[14] = Cell Viability - LYMP2-008 (AID 980); conditions: LYMP2-008 lymphoblastoid cell viability, qHTS; at 92.2 µM (top of the series); also: % is scaled to controls: 0 for no effect and ±100 for the full control effect; nearly all actives have a fitted effect of over 60% in size
Method in brief: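 Cells seeded at 2500/well and rested 5 hr at 37 C; compounds added over a concentration range and incubated 24 hr at 37 C; CellTiter-Glo added, 30 min at room temperature; luminescence read and AC50 fitted with Hill model.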

[15] = Cell Viability - LYMP2-010 (AID 981); conditions: LYMP2-010 lymphoblastoid cell viability, qHTS; at 92.2 µM (top of the series)
[16] = Cell Viability - LYMP2-012 (AID 982); conditions: LYMP2-012 lymphoblastoid cell viability qHTS; at 92.2 µM (top of the series)
[17] = Cell Viability - LYMP2-014 (AID 983); conditions: LYMP2-014 lymphoblastoid cells, viability qHTS; at 92.2 µM (top of the series);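 also: plate controls were DMSO only for no effect and 92 µM tetraoctylammonium bromide for full effect; nearly all actives have a fitted effect of over 50% in size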
Method in brief: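 Cells are plated at 2500/well and left 5 hr at 37 C. Compounds are added across a concentration range and incubated 24 hr at 37 C in complete medium. CellTiter-Glo is added, and luminescence is read after 30 min at room temperature.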

[18] = Cell Viability - LYMP2-016 (AID 984); conditions: LYMP2-016 lymphoblastoid cell viability, qHTS; at 92.2 µM (top of the series)
Method in brief: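 Acute toxicity in a Coriell human lymphoblastoid line is scored as loss of intracellular ATP over 24 h of treatment in complete medium. CellTiter-Glo signal is fitted across concentrations with the Hill equation to give AC50.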

[19] = Cell Viability - LYMP2-018 (AID 985); conditions: LYMP2-018 lymphoblastoid cells, viability (qHTS); at 92.2 µM (top of the series);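 also: compound exposure lasted 24 hr at 37 °C; plate controls were DMSO only for no effect and tetraoctylammonium bromide at 92 µM for full effect; nearly all actives have a fitted effect of over 50% in size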
Method in brief: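 Seed 2500 lymphoblastoid cells per well, incubate 5 hr at 37 C, add compound and incubate 24 hr at 37 C, add CellTiter-Glo, wait 30 min at room temperature, then read luminescence.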

[20] = Cell Viability - LYMP2-020 (AID 986); conditions: LYMP2-020 lymphoma cell viability, qHTS; at 92.2 µM (top of the series)
[21] = Cell Viability - LYMP2-022 (AID 987); conditions: LYMP2-022 lymphoblastoid cell viability; at 92.2 µM (top of the series)
[22] = Cell Viability - LYMP2-024 (AID 988); conditions: LYMP2-024 lymphoblastoid cell viability; at 92.2 µM (top of the series)
[23] = Cell Viability - LYMP2-026 (AID 989); conditions: LYMP2-026 lymphoblastoid cell viability, qHTS; at 92.2 µM (top of the series); also: % is scaled to controls: 0 for no effect and ±100 for the full control effect; nearly all actives have a fitted effect of over 50% in size
Method in brief: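 Cells are seeded at 2500 per well and held 5 hr at 37 C. Compounds are added in concentration series for 24 hr, then CellTiter-Glo reagent is applied and luminescence read.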

[24] = Cell Viability - LYMP1-002 - Assay at 24 hr (AID 993); conditions: LYMP1-002 lymphoblastoid cells viability; at 92.2 µM (top of the series); also: % is scaled to controls: 0 for no effect and ±100 for the full control effect
Method in brief: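 Acute toxicity is measured as concentration-dependent loss of cellular ATP in a human lymphoblastoid line (Coriell LYMP1-002) after 24 h treatment in complete medium. ATP is quantified by luciferase luminescence and AC50 derived by Hill modelling.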

[25] = Cell Viability - LYMP1-002 - Assay at 40 hr (AID 994); conditions: LYMP1-002 lymphoblastoid cell viability; at 92.2 µM (top of the series)
Method in brief: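 Cells are plated at 2500 per well and rested 5 hr at 37 C. Compounds are added and incubated 40 hr at 37 C. CellTiter-Glo reagent is added for 30 min at room temperature before luminescence is read.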

[26] = qHTS Assay for Identification of Small Molecule Inducers of Hypoxia Response (AID 2120; active = well fitted curve in the direction sought with a large enough effect in the signal ratio, with a control signal flat, not every such curve was filed as active; the % refers to the signal ratio; also: 0% is about no effect); conditions: hypoxia response reporter cells, beta-lactamase ratio readout; at 104 µM (top of the series)
Method in brief: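 Cell-based qHTS for reporter induction: hypoxia response element controlled beta-lactamase in ME-180 cells. Compounds incubated 17 h at 37 degrees C; activity from blue/green (460/530 nm) ratio, inducers ranked by AC50.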

[27] = molecular target: Ubiquitin carboxyl-terminal hydrolase 1 (Homo sapiens) (UniProt O94782); test: Inhibitors of USP1/UAF1: Pilot qHTS (AID 504865); conditions: purified USP1/UAF1, Ub-rhodamine cleavage fluorescence;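 also: rhodamine fluorescence freed from ubiquitin-rhodamine substrate followed over time; top concentration of the series differs between compounds; % is scaled to controls: 0 for no effect and ±100 for the full control effect; nearly all actives have a fitted effect of over 35% in size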
[28] = molecular target: Androgen receptor (Homo sapiens) (UniProt P10275); test: qHTS assay for small molecule antagonists of androgen receptor signaling (AID 588516; active = well fitted curve in the direction sought with a large enough effect in the signal ratio, with a control signal flat, not every such curve was filed as active; the % refers to the signal ratio; also: % is scaled to controls: 0 for no effect and ±100 for the full control effect); conditions: AR-UAS-bla HEK293, beta-lactamase ratio, antagonist mode, 16 h; at 76.8 µM (top of the series)
[29] = molecular target: Bile acid receptor (Homo sapiens) (UniProt Q96RI1); test: qHTS assay for small molecule antagonists of farnesoid X receptor signaling (AID 588526; calls by dose curve; also: % is scaled to controls: 0 for no effect and ±100 for the full control effect); conditions: HEK293T FXR-UAS-bla, beta-lactamase ratio, antagonist mode; at 76.7 µM (top of the series)
[30] = molecular target: Bile acid receptor (Homo sapiens) (UniProt Q96RI1); test: qHTS assay for small molecule agonists of farnesoid X receptor signaling (AID 588527; calls by dose curve;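 also: 0% = vehicle basal and 100% = reference agonist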); conditions: HEK293T FXR-UAS-bla, beta-lactamase ratio, 16 h; hits give high values

NC(=O)Nc1ccc([As](=O)(O)O)cc1
inactive: activity change, negative = cytotoxicity [1] -12.7% | activity change, negative = viability loss [2] -7.26% | viability change, negative = cytotoxic [3] 1.85% | activity change, negative = cytotoxic [4] -4.04% | activity change, negative = lower viability [5] -4.63% | activity change, negative = cytotoxicity [6] -2.42% | activity change, negative = cytotoxicity [7] -8.27% | activity change, negative = cytotoxicity [8] 2.52% | activity change, negative = cytotoxicity [9] -1.92% | activity change, negative = cytotoxicity [10] -6.99% | activity change, negative = cytotoxic [11] 0.116% | activity change, negative = cytotoxicity [12] 3.89% | activity change, negative = cytotoxicity [13] -9.23% | activity change, negative = cytotoxicity [14] -5.74% | activity, negative = cytotoxicity [15] -2.31% | activity change, negative = cytotoxicity [16] -1.24% | activity change, negative = cytotoxicity [17] 1.23% | activity change, negative = cytotoxicity [18] 1.59% | activity change, negative = cytotoxicity [19] -1.89% | activity change, negative = viability loss [20] -2.61% | viability change, negative = cytotoxic [21] -0.901% | activity change, negative = cytotoxicity [22] -17% | activity change, negative = cytotoxic [23] -7.77% | activity change, negative = cytotoxicity [24] 7.17% | viability change, negative = cytotoxic [25] 1.36% | activation [26] -0.297% | activity change, negative = inhibition ([27]; at 54.9 µM (top of the series)) 7.07% | activity change, negative = inhibition ([27]; at 114 µM (top of the series)) -0.715% | activity change, negative = inhibition [28] 9.65% | activity change, negative = inhibition [29] -2.5% | activation [30] -2.31%
